The series is described as follows: Spontaneous hydrolysis and release of PEP in PBS buffers. Format: physicochemical. Conditions: HPLC. The method, then: The molecular weights and dispersity (Ð) of the polymer precursors were determined by size-exclusion chromatography (SEC) on an HPLC system (Shimadzu) equipped with a refractive index, UV, and multiangle light scattering DAWN 8 EOS (Wyatt Technology Corp., Santa Barbara, CA) detectors using a TSK 3000 SWXL column (Tosoh Bioscience, Tokyo, Japan) and 80% MeOH:20% 0.3 M acetate buffer pH 6.5 at a flow rate of 0.5 mL‧min^−1. The calculation of molecular weights from the light scattering detector was based on the known injected mass assuming 100% mass recovery and RI detector with the refractive index increment dn/dc equal to 0.167 mL‧g^−1. The PEP release was also measured by SEC using Superose 12 10/300 GL column (Cytiva, Marlborough, MA, USA) and 0.2M Phosphate-buffered saline (PBS, pH 7.4) as a mobile phase at a flow rate 0.7 mL‧min^−1.
The enzymatic activity of cathepsin B was probed immediately before the release measurements as described previously. The enzymolysis was monitored by HPLC and the rate of PEP release was calculated from the area of the corresponding polymer peaks from the fluorescent detector (excitation 280 nm, emission 350 nm of Trp in PEP). The spontaneous hydrolysis and release of PEP were measured by HPLC in two different PBS buffers to mimic the bloodstream, pH 7.4 and pH 5.5, at 37 °C.

In the case of “p(HPMA-co-Ma-β-Ala-DBCO-azide-PEP) [P-PEP, non-cleavable polymer-PEP construct, control system]”, the “Stability / PEP release in PBS pH 7.4” value (PBS buffer pH 7.4, 37 °C, model conditions mimicking the bloodstream) was “no PEP liberation”. In addition, the “Stability / PEP release at pH 5.0” value (PBS pH 5.0 (method says pH 5.5), 37 °C) was “no PEP liberation”.
